Vif-A3F inh: Vif-A3F binding inhibition | HeLa A3F-eYFP + Vif (tagged APOBEC3F with the HIV-1 protein that degrades it), YFP fluorescence increase | 0.2% of 390,000 active | Potency, µM (doses to about 46.1 µM), for inactives: at the top dose activity, negative = active | AID 602313; note: potency is the fitted concentration of half-maximal effect; % of control where 0% means no effect; nearly all actives have a fitted effect of over 65% in size
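Fluorescence increase (Ex 488/Em 500-530) after overnight compound treatment at 37 deg C flags inhibition of Vif-driven A3F-eYFP loss in stable HeLa A3F-eYFP/Vif cells seeded overnight beforehand.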
Epigenetic derep: derepresses silenced GFP reporter in murine cells. murine LDR cells, GFP reporter derepression, 30 h. Potency, µM (series often up to 53.9 µM), for inactives: at the highest dose GFP activation, hits mostly activators. 0.2% of 280,000 active. AID 1865; note: potency is the fitted concentration of half-maximal effect; % of control where 0% means no effect; nearly all actives have a fitted effect of over 60% in size
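Readout is the number of GFP-expressing murine LDR cells, counted by cytometry following washing. Cells were treated with compound for 30 h at 37 C; the stably integrated CMV-GFP locus is normally silent.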
miR-21 reporter: miR-21 reporter, rising signal | 340,000 tested, under 10 active | AID 2288 | HeLa miR-21 FLuc reporter, luciferase, 48 h | Potency, µM (titrated, usually from 38.3 µM), for inactives: at the highest dose reporter change, positive = more light; active = well fitted rising curve with a large enough effect; inconclusive = small, poorly fitted or top-dose-only effect; inactive = no such curve, though single readings can be large or run the other way;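 further: % of control where 0% means no effect; miR-21 action dims this reporter so a rising signal means less miR-21 action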
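HeLa cells endogenously expressing miR-21, stably carrying CMV-driven firefly luciferase with a downstream miR-21 binding site, 2000 cells/well. Titrations up to approximately 40 uM, 48 hours; luciferase luminescence read.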
Vif-A3G inh: blocks the Vif interaction with human APOBEC3G; Q9HC16; HeLa A3G-eYFP + Vif (tagged APOBEC3G with the HIV-1 protein that degrades it), YFP fluorescence, overnight; Potency, µM (top dose mostly 46.1 µM), inactives show at the top dose activity, negative = active, usual class: inhibitors; 0.076% of 410,000 active; AID 602310; note: potency is the fitted concentration of half-maximal effect; % is set by controls: 0 for no effect and ±100 for the full control effect; nearly all actives have a fitted effect of over 60% in size
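Read-out is eYFP fluorescence (Ex 488/Em 500-530) from Vif-expressing HeLa A3G-eYFP cells; more signal means A3G escaped Vif-mediated degradation. Cells plated overnight, compound pinned in, incubated overnight at 37 deg C.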
* = called active by the depositor; ? = inconclusive; / = not tested or not shown. The list is not random: actives were taken first. Their share in the collection is about 0.34%. Unless noted, calls come from the whole dose curve; as a rule, active = well fitted curve in the direction sought with a large enough effect; inconclusive = small, poorly fitted or top-dose-only effect, or another doubt; inactive = no such curve, though single readings can be large; an effect the other way counts as inactive or inconclusive.

| molecule | Vif-A3G inh | Vif-A3F inh | Epigenetic derep | miR-21 reporter |
| --- | --- | --- | --- | --- |
| CCN(CC)c1ccccc1/C=C/[n+]1ccc(CCCCI)c2ccccc21 | -6% | / | / | / |
| C[C@]12CCC[C@H](O1)c1c(cc3c(c1O)C(=O)c1c(O)cc(O)cc1C3=O)O2 | 5.6µM* | 8.9µM* | / | / |
| CCCCC/C=C\C\C=C/C=C/C=C/[C@@H](SCC(N)C(=O)NCC(=O)O)[C@@H](O)CCCC(=O)O (stereo not given in full) | / | / | 0% | / |
| CCOc1ccc(NC(=O)c2cc(=O)c3ccc(C)c(C)c3o2)cc1 | -7% | ? | 20µM* | -6% |
| COc1ccc(N/C=C/C(=O)c2ccccc2)cc1 | -5% | -18% | / | -19% |
| COc1ccc(N/C=C/C(=O)c2sc(-c3ccccc3)nc2C)cc1 | 11µM* | -11% | 2% | 8% |
| COC1=C(Br)C(=O)c2ncccc2C1=O | -18% | 11µM* | / | / |
| COc1ccc(/C=C/c2cccc[n+]2C)c(O)c1 | 12% | -22% | / | 8% |
| CCN(CC)c1ccc(/C=C/c2cccc[n+]2C)c(OC)c1 | 7.9µM* | -530% | / | ? |
| C/C(=N/N=C(\C)c1ccccc1O)c1ccccc1O | -2% | 18µM* | / | -22% |
| COc1ccc(NC(=O)c2c(C)oc3ccc(O)c(CN4CCCCCC4)c23)cc1Cl | 1% | 2% | 5% | ? |
| CCOc1ccc(NC(=O)/C(C#N)=C/c2ccc(N3CCCC3)c(C)c2)cc1 | 4µM* | 2.5µM* | 1% | -1% |
| C=CC1CN2CCC1CC2[C@@H](O)c1ccnc2ccc(OC)cc12 (stereo not given in full) | 5% | / | -1% | / |
| CCOC(=O)c1cc2n(c1/N=C/N(C)C)-c1ccccc1C2=O | ? | 22µM* | 0% | -3% |
| COc1ccc(-c2csc(/C(C#N)=C/Nc3ccc4c(c3)OCCO4)n2)cc1 | 3% | ? | 10µM* | -11% |
| Cc1csc2ncnc(NNC(=O)c3ccc(Cl)cc3)c12 | 1% | 4% | 35µM* | 14% |
| O=C(NNc1ncnc2sccc12)c1ccc(Cl)cc1 | -1% | 4% | -1% | -1% |
| CCc1noc(-c2ccc(N(C)Cc3ccc(OC)cc3)c([N+](=O)[O-])c2)n1 | -11% | -14% | -4% | -5% |
| CN(C(=O)CSc1nncn2c1cc1occc12)c1ccccc1 | -3% | 7% | -3% | 2% |
| O=C(O)c1ccccc1/C=N/Nc1ccc(S(=O)(=O)N2CCOCC2)cc1[N+](=O)[O-] | 6.3µM* | 0% | 1% | 2% |
| NS(=O)(=O)c1ccc(N/N=C/c2ccccc2C(=O)O)c([N+](=O)[O-])c1 | -1% | -21% | -2% | -2% |
| CN(C)c1ccc(C2C=C(c3ccccc3)Nc3nnnn32)cc1 (stereo not given) | ? | 25µM* | 9% | -25% |
| CCOc1ccc(OCC)c(Nc2nc3ccc(C(=O)c4ccccc4)cc3n3cnnc23)c1 | -1% | 1% | 1% | -3% |
| CCOc1ccc(OCC)c(Nc2nc3ccc(Cl)cc3n3cnnc23)c1 | / | / | 22µM* | -10% |
| Cc1cc(C)c2cc3c(N)c(C(=O)N4CCOCC4)sc3nc2c1 | -27% | ? | 0% | 1% |
| Cc1cc(C)c2cc3c(N)c(C(=O)Nc4c(C)[nH]c(=O)[nH]c4=O)sc3nc2c1 | ? | 22µM* | 0% | -10% |
| CN(C)c1ccc(/C=C2\Cc3ccccc3C2=O)cc1 | 3.2µM* | / | / | / |
| Cc1cccc(-n2cnc3cc(C(=O)NCc4ccccc4Cl)ccc32)c1 | -4% | 3% | 2% | 11% |
| CC(C)(C)n1ncc2c(=O)n(Cc3c(F)ccc(F)c3Cl)cnc21 | 2% | / | / | / |
| Cc1oc(-c2cccc(C(F)(F)F)c2)nc1CN1CCOCC1 | 4% | 8% | 11µM* | -49% |
| Cc1ccccc1NCC(=O)N=Nc1c(O)[nH]c2ccc([N+](=O)[O-])cc12 | 5µM* | ? | 1% | 0% |
| Cc1cc(C)cc(NC(=O)CCc2c(C)nc3c(c2C)c(=O)n(C)c(=O)n3C)c1 | 2% | -3% | 18% | -1% |
| CCOc1ccccc1N1CC(c2nc3ccccc3n2Cc2c(C)cc(C)cc2C)CC1=O (stereo not given) | -27% | 13µM* | -2% | 26% |
| CCOc1ccccc1N1CC(c2nc3ccccc3n2CCOc2ccc(OC)cc2)CC1=O (stereo not given) | -8% | -8% | 0% | 0% |
| O=C(OC1Cc2c(O)cc(O)cc2OC1c1cc(O)c(=O)c2c(O)c(O)cc(C3Oc4cc(O)cc(O)c4CC3OC(=O)c3cc(O)c(O)c(O)c3)c2c1)c1cc(O)c(O)c(O)c1 (stereo not given) | / | / | 0% | / |
| CC(C)C(=O)NC(=S)N(Cc1ccccc1)Cc1ccccc1 | -5% | -9% | 7% | -1% |
| CC(C)CC(=O)NC(=S)N(Cc1ccccc1)Cc1ccccc1 | -3% | 25µM* | 1% | -8% |
| COc1cc(NC(=O)C2CCN(S(=O)(=O)c3c(C)noc3/C=C/c3cccs3)CC2)cc(OC)c1 | -3% | -1% | 0% | 8% |
| Cc1cc(Nc2cc(Cl)ccc2C)n2nc(-c3ccccc3)nc2n1 | 0% | 5% | 25µM* | -4% |
| O=C(CCN1C(=O)/C(=C/C=C/c2ccccc2)SC1=S)Nc1ccccn1 | -9% | ? | 14µM* | 14% |
| C1=Nc2ccccc2/C1=C/c1c[nH]c2ccccc12 | -12% | / | / | / |
| CCOc1ccc(C(=O)Nc2cc(-c3nc4ccccc4[nH]3)ccc2C)cc1[N+](=O)[O-] | -8% | 6% | -4% | -3% |
| CCOc1ccc(C(=O)Nc2cc(-c3nc4ccccc4[nH]3)ccc2Cl)cc1[N+](=O)[O-] | 13µM* | -2% | 2% | -23% |
| C=C1C=C(C(F)F)n2ncc(C(=O)NCc3ccccc3OC)c2N1 | 3% | / | / | / |
| CCC(=O)NC(c1ccccc1OC)c1ccc2cccnc2c1O (stereo not given) | -6% | 0% | 3.5µM* | ? |
| CCCCC(=O)NC(c1ccccc1Cl)c1ccc2cccnc2c1O (stereo not given) | -18% | 0% | / | 20% |
| CCCC(=O)NC(c1ccc(OC)cc1)c1ccc2cccnc2c1O (stereo not given) | -15% | 11µM* | 3.5µM* | 28% |
| COc1ccccc1N1CCN(C(=O)c2c(C)oc3ncn(C)c(=O)c23)CC1 | 2% | 2% | 1% | 2% |
| Cc1ccc(CSc2nc(-c3ccc(C(C)(C)C)cc3)nc3cc(=O)[nH]n23)cc1 | 10µM* | 2% | -3% | 6% |
| Cc1ccc(NC(=O)CSc2nc(-c3ccc(C(C)(C)C)cc3)nc3cc(=O)[nH]n23)cc1C | -3% | ? | -3% | 1% |
| Cc1cccc2c(=O)n3c(cc12)-c1[nH]c2ccccc2c1CC3 | -26% | 22µM* | / | / |
| COc1ccc2nc(N3C(=O)/C(=C/c4ccccc4)NC3=S)sc2c1 | 5µM* | 13µM* | 9% | -4% |
| Nc1c(C(=O)Nc2ccccc2F)sc2nc(-c3cccnc3)ccc12 | -13% | -37% | 8% | -21% |
| Nc1c(C(=O)Nc2ccccc2F)sc2nc(-c3ccco3)ccc12 | ? | 22µM* | ? | -44% |

Whole records, quoted from the list. Order of values: Vif-A3G inh	Vif-A3F inh	Epigenetic derep	miR-21 reporter
CCC(=O)NC(c1ccccc1OC)c1ccc2cccnc2c1O (stereo not given) across the screens: -6%	0%	3.5µM*	?
Cc1ccc(NC(=O)CSc2nc(-c3ccc(C(C)(C)C)cc3)nc3cc(=O)[nH]n23)cc1C across the screens: -3%	?	-3%	1%
Cc1ccc(CSc2nc(-c3ccc(C(C)(C)C)cc3)nc3cc(=O)[nH]n23)cc1 across the screens: 10µM*	2%	-3%	6%
CCOc1ccc(C(=O)Nc2cc(-c3nc4ccccc4[nH]3)ccc2C)cc1[N+](=O)[O-] across the screens: -8%	6%	-4%	-3%
COc1cc(NC(=O)C2CCN(S(=O)(=O)c3c(C)noc3/C=C/c3cccs3)CC2)cc(OC)c1 across the screens: -3%	-1%	0%	8%

Assay outcomes deposited in PubChem by National Center for Advancing Translational Sciences (NCATS).
